For one compound, pA2 results are on record in ChEMBL document CHEMBL1909509, “Mepyramine-JNJ7777120-hybrid compounds show high affinity to hH(1)R, but low affinity to hH(4)R” (Bioorg Med Chem Lett, 2011).

The chains behind the UniProt entries cited, without tags or fusion partners.
UniProt P31389, whole entry, looked up: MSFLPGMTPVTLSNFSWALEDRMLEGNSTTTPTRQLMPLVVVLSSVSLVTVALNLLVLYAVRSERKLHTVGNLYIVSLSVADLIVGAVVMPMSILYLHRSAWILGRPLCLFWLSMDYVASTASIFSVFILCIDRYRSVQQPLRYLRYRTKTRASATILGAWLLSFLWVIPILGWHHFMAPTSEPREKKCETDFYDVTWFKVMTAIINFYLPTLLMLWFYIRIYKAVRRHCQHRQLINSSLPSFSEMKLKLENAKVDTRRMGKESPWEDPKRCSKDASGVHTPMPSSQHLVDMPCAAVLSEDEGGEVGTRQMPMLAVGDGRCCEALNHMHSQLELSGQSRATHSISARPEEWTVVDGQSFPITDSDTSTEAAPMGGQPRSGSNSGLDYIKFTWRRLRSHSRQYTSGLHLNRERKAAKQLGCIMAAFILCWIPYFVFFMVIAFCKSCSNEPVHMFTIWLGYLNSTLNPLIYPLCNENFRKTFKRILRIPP

By pA2 is commonly meant a measure of antagonist potency on a negative log scale. A higher pA2 goes with a more potent antagonist.

The test deals with Histamine H1 receptor (Cavia porcellus, UniProt P31389).

Compound `O=C(c1cc2ccccc2[nH]1)N1CCN(CCN2CCC(Nc3nc4ccccc4n3Cc3ccc(F)cc3)CC2)CC1` showed a pA2 of 8.42.
